Apparent affinities of Ab-14 variants for a coronavirus HR2 peptide

Antigen: PDVDLGDISGINAS, a 14-residue peptide of the SARS-CoV-2 spike HR2 region.

Parent scFv Ab-14: VH joined to VL by three GGGGS repeats. Changes lie in the heavy chain CDRs alone.
VH: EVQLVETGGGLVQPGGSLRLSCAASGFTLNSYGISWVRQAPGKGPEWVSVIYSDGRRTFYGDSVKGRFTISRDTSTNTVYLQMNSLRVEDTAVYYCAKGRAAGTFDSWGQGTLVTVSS
VL: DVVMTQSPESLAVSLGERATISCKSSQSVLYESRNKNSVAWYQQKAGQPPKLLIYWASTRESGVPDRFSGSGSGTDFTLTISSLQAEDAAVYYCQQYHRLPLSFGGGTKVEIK

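Phage display of a naive human antibody library on the peptide gave the parent. Variants in AAYL49 differ from the parent at up to three CDR positions; double and triple changes were sampled at random. In AlphaSeq, yeast of one mating type display the scFv and yeast of the other type display the target. Mating (16 h, 30 °C) was followed by selection of diploids and sequencing of their barcodes. A regression on co-assayed BCL2-family reference pairs converts the normalised counts of each replicate to an apparent Kd. Each pool was mated in three replicate cultures.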

Positions count from residue 1 of the parent VH; F27L puts L in place of F. All variants listed here change G61 of the VH, counted from its first residue. Kd is apparent (estimated from mating counts) and averaged on the log scale over replicates with a signal. Smaller is tighter. An entry "no signal" has no value in the source: the pair was not observed among the diploids in any replicate. This suggests poor binding but is not conclusive.

With F27L+G61I+G99V the result was no signal (0 of 3 replicates).
With T58E+G61D+G103P the result was 22 µM (2 of 3 replicates).
With L29Q+G61M+G103P the result was no signal (0 of 3 replicates).
With G61A+K65I+A102C the result was 4.8 µM (1 of 3 replicates).
With N30S+G61A+K65V the result was 50 nM (3 of 3 replicates).
With F27R+G61C+T104I the result was no signal (0 of 3 replicates).
With G61W+S63W the result was no signal (0 of 3 replicates).
With Y32R+G61W+D62A the result was no signal (0 of 3 replicates).
With G61V+A101Y+D106S the result was 8.1 nM (3 of 3 replicates).
With G61A+K65I+A102I the result was no signal (0 of 3 replicates).
With I34P+G61E+D106K the result was no signal (0 of 3 replicates).
With I34G+G61L the result was 14 µM (2 of 3 replicates).
With S31L+G61S+R100E the result was 2.4 nM (3 of 3 replicates).
With G61P+V64L+G103E the result was 260 nM (1 of 3 replicates).
With S31M+I34R+G61Y the result was no signal (0 of 3 replicates).
With G33Q+G61W+V64W the result was 37 µM (1 of 3 replicates).
With G55N+G61K+F105Y the result was 39 µM (1 of 3 replicates).
With N30W+V50M+G61R the result was 23 µM (1 of 3 replicates).
With G33H+G61E+S63T the result was 250 µM (1 of 3 replicates).
With Y32I+G61W+D62M the result was no signal (0 of 3 replicates).
With S35A+G55K+G61F the result was 65 µM (3 of 3 replicates).
With D54H+G61N+D62T the result was 1.1 µM (1 of 3 replicates).
With R57H+G61I the result was 7.4 µM (1 of 3 replicates).
With L29E+G61T the result was no signal (0 of 3 replicates).
With G61L+G99A+A102L the result was 3.3 µM (2 of 3 replicates).
With S53W+G61H+R100A the result was 13 nM (3 of 3 replicates).
With L29D+G33D+G61F the result was 390 nM (1 of 3 replicates).
With S53H+G61F+D62R the result was 11 µM (1 of 3 replicates).
With G61M+R100K+A101W the result was 42 nM (3 of 3 replicates).
With Y52H+G61R+F105R the result was no signal (0 of 3 replicates).
With T28F+G61M+R100F the result was 20 µM (2 of 3 replicates).
With Y32D+G55F+G61N the result was 45 µM (2 of 3 replicates).
With F59T+G61R+S63Q the result was 3.5 µM (3 of 3 replicates).
With Y52F+R56M+G61N the result was 6.5 µM (3 of 3 replicates).
With Y52V+G61M+A102W the result was no signal (0 of 3 replicates).
With Y32R+G61S+G99T the result was no signal (0 of 3 replicates).
With G61F+G103C+S107F the result was 4.2 µM (2 of 3 replicates).
With S31K+G61D+D106N the result was no signal (0 of 3 replicates).

Empty control strains, which show no peptide, gave a signal in 15% of pairings with library AAYL49; the median was 11 µM and 95% of these signals were weaker than 680 nM. No background was subtracted.

The measurements come from Engelhart et al. 2022 (doi:10.1038/s41597-022-01779-4) through the FLAb antibody collection.